Data as given in US5359121A, “Glycine derivative monosodium salt tetrahydrate” (Ono Pharmaceutical Co., Ltd., priority 1991, dated 1994).

Target: T1, elastase from human neutrophil (Homo sapiens, UniProt P08246)
T1 construct: from tissue; host or cells: human neutrophil
T1 sequence (P08246 30-247 limits assumed): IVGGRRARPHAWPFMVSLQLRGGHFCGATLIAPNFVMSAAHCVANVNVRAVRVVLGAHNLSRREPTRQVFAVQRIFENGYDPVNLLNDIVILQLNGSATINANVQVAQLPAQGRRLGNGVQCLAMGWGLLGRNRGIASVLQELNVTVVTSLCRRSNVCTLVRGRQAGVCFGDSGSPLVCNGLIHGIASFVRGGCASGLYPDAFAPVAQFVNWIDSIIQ
Assay: Inhibitory effect on elastase (spectrophotometric, Suc-Ala-Pro-Ala-pNA substrate)
Assay type: biochemical
Settings: 1 mM Suc-Ala-Pro-Ala-pNA, pH 8.0, 37° C., 30 minutes
Experimental: The test was carried out by a slight modification of the method of Bieth et al [see Biochem. Med., 75, 350 (1974)] using elastase from human neutrophil. Namely, it is a spectrophotometric method using the synthesized substrate [succinyl-alanyl-prolyl-alanyl-p-nitroanilide (Suc-Ala-Pro-Ala-pNA, produced by the peptide laboratory)] which has comparatively high specificity on neutrophil elastase.
The reaction mixture consisted of 1 mM Suc-Ala-Pro-Ala-pNA (dissolved in N-methylpyrrolidone to the concentration of 100 mM, and then adding 1/100 amount of the solution to the reaction mixture.), 0.1M Tris-HCl buffer solution (pH 8.0), 0.2M sodium chloride aqueous solution, the sample solution of various concentrations and enzyme solution in a final volume of 1.0 ml was then incubated at 37° C. for 30 minutes. The reaction was stopped by the addition of 100 μl of 50% acetic acid into the reaction mixture, and then p-nitroanilide released was measure on absorbance of 405 nm with spectrophotometer. Inhibition percentage and IC50 value, of the test compound were calculated.

## CC(C)(C)C(=O)Oc1ccc(S(=O)(=O)Nc2ccccc2C(=O)NCC(=O)[O-])cc1.O.O.O.O.[Na+] [the present invention compound, N-[o-(p-pivaloyloxybenzenesulfonylamino)benzoyl]glycine monosodium salt tetrahydrate]
  IC50: 46 nM
